Test results reported in patent publication US20090130261A1, “Vit-A-Cup” (priority 2007, published 2009).

Assay: solubility characteristics of additives
Conditions: require suspension prior to administration to the cup

For `[Ca+2]` [Calcium], the solubility was “Insoluble”.
